Measurements taken from patent US20130089564A1.

Target: rat glandular kallikrein (40 kDa protein isolated from rat submandibular gland) (rat) (UniProt P00758)
Assay: cell-based or functional assay

## aprotinin (from UniProt P00974 36-93)
  inhibition in the BAEE assay (esterase activity): 90%
  inhibition of the enzymatic activity (BAEE assay): 40%
